Assays:
ctDNA = test: Exploratory ctDNA biomarker analysis (NGS, 1021-gene panel); assay type: in vivo, human; details: biomarker subset of 28 consecutive patients at a single study center
Method: For exploratory biomarker analysis, ctDNA was evaluated with blood samples collected at baseline, and on the first day of each treatment cycle in a subset of 28 consecutive patients from a single center (Supplementary Table 6). […] The DNA library construction and sequencing were supported by the Geneplus-Beijing Institute (Beijing, China) using a DNBSEQ-T7RS sequencer (MGI Tech). See supplementary methods for details on NGS. Additionally, treatment efficacy was analyzed according to HER2 mutation subtype (NGS or PCR on blood or tumor tissue; n = 63) and HER2 expression (immunohistochemistry on available tumor tissue; n = 30).
Pharmacokinetic parameters were estimated by non-compartmental method using Phoenix WinNonlin software (version 8.3; A Certara Company, USA). The 95% CIs of ORR and DCR were calculated with the use of Clopper Pearson method. Median PFS and DoR were estimated using the Kaplan-Meier method, with the corresponding 95% CIs calculated using the Brookmeyer-Crowley methods with log-log transformation. For biomarker analysis, Pearson correlation was used to assess the linear association between ctDNA levels and PFS time; the rank-sum test compared ctDNA levels between drug-resistant and sensitive patients; Fisher’s exact test evaluated the proportion of drug-resistant and sensitive patients with ctDNA clearance within 6 months; and the Log-rank test compared PFS outcomes between patients with and without ctDNA clearance within 6 months. Statistical analyses were conducted using SAS (version 9.4) or R (version 4.2.0).
Cell-free DNA (cfDNA) and germline genomic DNA (gDNA) were extracted from plasma and leukocytes using the QIAamp Circulating Nucleic Acid Kit and the QIAamp DNA Blood Mini Kit (Qiagen, Hilden, Germany), respectively, cfDNA with ~170 bp and gDNA with > 500 bp were retained for subsequent processing. […] GATK was used to de-duplicate the reads, local realignment and base quality recalibration, and somatic mutation calling was performed using MuTect2. […]

[1] = Immunogenicity (SHR-A1811 antibody in blood samples); assay type: in vivo, human; details: samples from the 63 patients
Method: Blood samples for pharmacokinetic analyses were collected pre-dose, within 5 min, 2, 8, 24, 72 h, 7, 14 day after the end of infusion during the first cycle; pre-dose and within 5 min post-dose on day 1 of cycle 2; pre-dose, within 5 min, 2 h, 7, and 14 day post-dose during cycle 3; pre-dose and post-dose on day 1 of cycles 4, 6, and 8; and pre-dose every 3 cycles since cycle 11. Blood samples for immunogenicity analyses were collected pre-dose on day 1 of cycle 1, 2, 3, 4, 6 and 8; from cycle 11 onwards, samples were collected pre-dose on day 1 of every 3 cycles.

With SHR-A1811 the disease control rate (ctDNA) was 96.4%, the median progression-free survival (ctDNA) was 7.1 months and the objective response rate (ctDNA) was 46.4%. The “Samples tested positive for the SHR-A1811 antibody” value [1] was “None”.

— publication PMC11247081 (Signal Transduction and Targeted Therapy, 2024)
